# Measurements reported in article PMC3376891 (Cell, 2012).
# Columns and labels:
# [1] = Far-UV CD spectroscopy of peptides; assay type: physicochemical; conditions: aqueous solution / buffer (Figure S2D)
# [2] = ref PDB; cited from earlier work
substance,measurement,setting,value
obestatin [Pep6],Secondary structure by far-UV CD,[1],unfolded in our buffer system
same,Structure according to PDB NMR structures,[2],α helical when present in micelles yet adopts random-coil structure in water
